# Assay results from PubChem BioAssay AID588458 (Sanford-Burnham Center for Chemical Genomics, 2011).
# By UniProt entry, the sequences of proteins in these tests, tags left out. Where a name states a change or a piece, a line headed by the entry shows the natural chain unless it says otherwise.
# UniProt P26358: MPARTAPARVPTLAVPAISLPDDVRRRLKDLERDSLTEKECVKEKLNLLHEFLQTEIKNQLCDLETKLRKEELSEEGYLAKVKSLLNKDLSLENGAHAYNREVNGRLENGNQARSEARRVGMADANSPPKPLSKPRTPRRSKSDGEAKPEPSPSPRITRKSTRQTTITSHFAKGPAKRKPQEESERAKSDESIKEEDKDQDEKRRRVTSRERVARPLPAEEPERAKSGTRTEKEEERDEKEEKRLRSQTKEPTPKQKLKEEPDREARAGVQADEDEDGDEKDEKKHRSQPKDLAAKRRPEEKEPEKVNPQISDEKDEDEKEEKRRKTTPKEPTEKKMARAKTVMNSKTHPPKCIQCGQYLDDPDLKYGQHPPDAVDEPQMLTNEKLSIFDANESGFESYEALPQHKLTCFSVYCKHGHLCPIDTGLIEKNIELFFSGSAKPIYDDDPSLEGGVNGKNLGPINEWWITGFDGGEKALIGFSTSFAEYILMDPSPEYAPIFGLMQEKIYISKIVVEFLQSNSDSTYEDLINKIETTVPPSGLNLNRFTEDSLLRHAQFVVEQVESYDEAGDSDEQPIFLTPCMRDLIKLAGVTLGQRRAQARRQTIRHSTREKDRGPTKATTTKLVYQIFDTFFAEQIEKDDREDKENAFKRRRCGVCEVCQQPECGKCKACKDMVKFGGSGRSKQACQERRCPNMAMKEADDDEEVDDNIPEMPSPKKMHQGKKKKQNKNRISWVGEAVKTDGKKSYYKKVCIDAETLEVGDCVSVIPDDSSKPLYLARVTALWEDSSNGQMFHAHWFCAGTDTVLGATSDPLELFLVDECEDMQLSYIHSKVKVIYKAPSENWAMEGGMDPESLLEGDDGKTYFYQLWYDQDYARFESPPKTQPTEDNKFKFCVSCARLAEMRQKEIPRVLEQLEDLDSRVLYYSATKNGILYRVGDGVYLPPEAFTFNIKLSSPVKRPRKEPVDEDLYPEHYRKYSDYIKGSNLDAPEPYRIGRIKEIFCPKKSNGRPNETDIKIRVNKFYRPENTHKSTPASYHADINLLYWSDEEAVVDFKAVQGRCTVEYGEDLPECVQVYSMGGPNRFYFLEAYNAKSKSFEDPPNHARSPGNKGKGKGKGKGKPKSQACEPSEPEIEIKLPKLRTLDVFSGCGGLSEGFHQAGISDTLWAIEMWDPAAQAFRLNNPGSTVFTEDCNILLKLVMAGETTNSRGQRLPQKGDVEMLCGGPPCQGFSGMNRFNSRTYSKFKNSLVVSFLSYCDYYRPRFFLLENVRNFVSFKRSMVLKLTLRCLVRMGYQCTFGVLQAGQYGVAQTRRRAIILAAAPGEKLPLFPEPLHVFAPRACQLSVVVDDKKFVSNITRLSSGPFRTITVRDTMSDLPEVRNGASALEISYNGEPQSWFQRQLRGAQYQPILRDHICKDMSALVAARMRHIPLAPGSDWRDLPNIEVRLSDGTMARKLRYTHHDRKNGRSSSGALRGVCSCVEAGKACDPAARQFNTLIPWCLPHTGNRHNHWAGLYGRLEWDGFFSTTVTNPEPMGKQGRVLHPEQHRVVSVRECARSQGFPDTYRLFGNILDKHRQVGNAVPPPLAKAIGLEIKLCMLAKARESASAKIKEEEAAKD
# The list shows a part of the results, in another mix than the full data. Calls of active or inactive are those of the source. No stated cut-off is given here; in the data, active means inhibition above about 50%; inactive means the rest.
# Target: DNA (cytosine-5)-methyltransferase 1 (Homo sapiens) (UniProt P26358)
# Experiment: human DNMT1 methyltransferase inhibitors, primary screen, biochemical, molecular beacon, fluorescence, HinP1I cleavage, uHTS (AID 588458)
# Conditions: at 10 µM, active compounds read high
row,Compound,inhibition (reported as % activation of signal)
1,COC(=O)C1(C)COP(=O)(Nc2ccccc2)OC1 (configuration not stated),inactive: -1.58%
2,O=[N+]([O-])c1cccc(NC2=NCC(CBr)S2)c1 (configuration not stated),inactive: -8.55%
3,O=C(O)CNc1ccc([As](=O)(O)O)cc1,inactive: 1.33%
4,CC(C)(C)C(=O)NC(Sc1ccncn1)C(Cl)(Cl)Cl (configuration not stated),inactive: 3.44%
5,O=[N+]([O-])c1ncn(CCn2ncnc2[N+](=O)[O-])n1,inactive: -1.28%
6,O=C(Nc1cc([As](=O)(O)O)ccc1O)c1ccccc1,inactive: 3.04%
7,O=P1(N(CCCl)CCCl)OCCCS1 (configuration not stated),inactive: 2.55%
8,CC(C)c1nc(Nc2ccccc2)n(P(=O)(N(C)C)N(C)C)n1,inactive: -2.61%
9,CC(C)=N/N=C(\N)N[N+](=O)[O-],inactive: 0.34%
10,CN(C)C(=O)OCCc1n(C)cc[n+]1C,inactive: -5.79%
11,CC1CCN(C(=O)Oc2c(Cl)cc(Cl)c3cccnc23)CC1,inactive: 0.07%
12,c1cc(-c2nn[nH]n2)ccc1-c1nn[nH]n1,inactive: 4.8%
13,Nc1ccc([As](=O)(O)c2ccc(N)cc2)cc1,inactive: 1.64%
14,C[N+]1=C2C=CC=CC=C2SC12C([N+](=O)[O-])=CC([N+](=O)[O-])=C[C-]2[N+](=O)[O-] (configuration not stated),active: 95%
15,CCN(/C(=N/P(=O)(N1CCOCC1)N1CCOCC1)N1CCOCC1)c1ccc(OC)cc1,inactive: -0.38%
16,CC(=O)N1C2C3N(C(C)=O)C1C1N(C(C)=O)C(C(N1C(C)=O)N3C(C)=O)N2C(C)=O,inactive: -0.34%
17,O=[N+]([O-])c1cccc2n[nH]nc12,inactive: 0.52%
18,Cc1ccc(NP(=O)(Oc2ccccc2)Oc2ccccc2)nc1,inactive: 0.65%
19,O=[N+]([O-])c1cc([N+](=O)[O-])c(CCNc2ccccc2)c([N+](=O)[O-])c1,inactive: -3.26%
20,CCc1nc2c(n1)c1c(non1O)c1c2no[n+]1[O-],inactive: 10.2%
21,COc1ccc(C2=NCC(CBr)S2)cc1 (configuration not stated),inactive: -5.91%
22,O=[N+]([O-])C1C(O)C(O)C([N+](=O)[O-])C(O)C1O (configuration not stated),inactive: 22.6%
23,Nc1cc(N)c2nonc2c1[N+](=O)[O-],inactive: -17.2%
24,CC(C)CC(=O)NC(Sc1ccc(Cl)cc1)C(Cl)(Cl)Cl (configuration not stated),inactive: 3.18%
25,Oc1ccccc1CNc1ccccn1,inactive: 3.89%
26,O=C(NC(Sc1ccncn1)C(Cl)(Cl)Cl)c1ccccc1 (configuration not stated),inactive: 2.22%

row,Compound,inhibition (reported as % activation of signal)
1,COc1ccccc1OP(=O)(Nc1ccc(C)cn1)Oc1ccccc1OC,inactive: 0.35%
2,Cc1ccc(OP(=O)(Nc2nccs2)Oc2ccc(C)cc2)cc1,inactive: -1.68%
3,CN1CCCC(OC(=O)C(c2ccccc2)c2ccccc2)C1 (configuration not stated),inactive: 4.35%
4,Clc1ccc(Cl)c(NC2=NCC(CBr)S2)c1 (configuration not stated),inactive: 2.14%
5,NC(=O)c1cc([N+](=O)[O-])cc([N+](=O)[O-])c1N,inactive: 3.53%
6,CN(C(=O)Cc1ccc(Cl)c(Cl)c1)[C@H]1CCCC[C@H]1N1CCCC1,inactive: -5.94%
7,Cc1ccc(N/C(=N/P(=O)(N2CCOCC2)N2CCOCC2)N2CCOCC2)cc1,inactive: 2.64%
8,CCN(N=Nc1nonc1N)c1nonc1N,inactive: 0.2%
9,Nc1cccc2ccc([As](=O)(O)O)cc12,active: 74.2%
10,Cc1cc(SC(NC(=O)c2ccc(F)cc2)C(Cl)(Cl)Cl)ncn1 (configuration not stated),inactive: 3.39%
11,CCOP(=O)(Nc1ccccc1)OCC,inactive: 2.89%
12,CN(C(=O)Cc1ccc(Cl)c(Cl)c1)[C@H]1CCCC[C@@H]1N1CCCC1,inactive: -3.92%
13,Cc1ccc(NP(=O)(Oc2ccccc2F)Oc2ccccc2F)nc1,inactive: -0.33%
14,CC(=O)Nc1ccc([As](=O)(O)O)cc1,inactive: 3.02%
15,O=C(O)c1ccccc1[As](=O)(O)O,inactive: 1.67%
16,CCCC1OP(N)(=O)OCC1CC (configuration not stated),inactive: -2.96%
17,O=P(Nc1nc2ccc(Cl)cc2s1)(c1ccccc1)c1ccccc1,inactive: -4.33%
18,CN(C)P(=O)(N(C)C)n1c(Nc2ccccc2)nnc1-c1ccccc1,inactive: 1.07%
19,CC(NC(=O)COC(=O)C(O)(c1ccccc1)c1ccccc1)c1ccccc1 (configuration not stated),inactive: -0.73%
20,Cc1ccccc1OP(=O)(Nc1ccccn1)Oc1ccccc1C,inactive: -0.96%
21,O=c1c2cc([N+](=O)[O-])ccc2[nH]c2c([N+](=O)[O-])cc([N+](=O)[O-])cc12,inactive: -13.5%
22,CN(C)C(=O)Oc1noc2ccccc12,inactive: -0.52%
23,COC(=O)c1cc2c(s1)N=C(c1ccccc1)N(C)P2(=O)N1CCOCC1 (configuration not stated),inactive: 4.01%
24,CC(=O)NC(SC(=S)N(CC(C)C)CC(C)C)C(Cl)(Cl)Cl (configuration not stated),inactive: -10.6%
25,Cc1ccc(OP(=O)(Nc2ccccn2)Oc2ccc(C)cc2)cc1,inactive: -2.43%
26,O=C(OC1CN2CCC1CC2)c1ccccc1 (configuration not stated),inactive: -0.68%

row,Compound,inhibition (reported as % activation of signal)
1,CCC(=O)N1C2C3N(C(=O)CC)C1C1N(C(=O)CC)C(C(N1C(=O)CC)N3C(=O)CC)N2C(=O)CC,inactive: -0.68%
2,O=P1(N(CCCl)CCCl)OCCC2CCCCN21 (configuration not stated),inactive: -10.1%
3,O=C(NC1CCS(=O)(=O)C1)NP(=S)(Oc1ccccc1)Oc1ccccc1 (configuration not stated),inactive: -4.56%
4,CCNC(=S)/N=C(\N)N[N+](=O)[O-],inactive: 0.9%
5,c1ccc(-c2nn[nH]n2)c(-c2nn[nH]n2)c1,inactive: 0.18%
6,Cc1ccc(NP(=O)(Oc2cccc(C)c2)Oc2cccc(C)c2)nc1,inactive: 6.92%
7,CC(=O)Nc1ccc([As](=O)(O)O)c(O)c1,inactive: -0.77%
8,CC(=O)Nc1ccc(Oc2c([N+](=O)[O-])cc([N+](=O)[O-])cc2[N+](=O)[O-])cc1,inactive: -0.77%
9,CC(=O)c1ccc(N2CC2c2ccncc2)cc1 (configuration not stated),inactive: 1.14%
10,N#C/C(=C\c1ccc(N(CCBr)CCBr)cc1)C(N)=O,inactive: 14.1%
11,COC(=O)C1(C)COP(=O)(NCc2ccccc2)OC1 (configuration not stated),inactive: 2.86%
12,Cc1ccccc1CN(C)C(=O)COC(=O)C(O)(c1ccccc1)c1ccccc1,inactive: 2.56%
13,C[C@H]1OP(=O)(Oc2ccccc2)C[C@@H]2O[C@@H]21 (some centres not stated),inactive: 0.2%
14,C[C@@H]1C=CCP(=O)(Oc2ccccc2)O1 (some centres not stated),inactive: 3.09%
15,CCc1cc(O)c([N+](=O)[O-])c(C)c1[N+](=O)[O-],inactive: -0.13%
16,CC(C)(C)C(=O)NC(Sc1ccccc1)C(Cl)(Cl)Cl (configuration not stated),inactive: 1%
17,O=P1(Nc2nc3ccc(Cl)cc3s2)COc2ccccc2O1 (configuration not stated),inactive: -0.53%
18,CCOc1ccc(C2=NCC(CBr)S2)cc1 (configuration not stated),inactive: 5.4%
19,c1nnnn1CCn1cnnn1,inactive: 2.19%
20,O=P(Nc1nccs1)(c1ccccc1)c1ccccc1,inactive: 1.76%
21,CC(C)C(=O)NC(Sc1ccccc1)C(Cl)(Cl)Cl (configuration not stated),inactive: -0.16%
22,C(Cc1nn[nH]n1)Cc1nn[nH]n1,inactive: 11.1%
23,Nc1ccc([As](=O)(O)c2ccc([N+](=O)[O-])cc2)cc1,inactive: -0.13%
24,O=C(OC1CN2CCC1CC2)c1cccc(Cl)c1 (configuration not stated),inactive: 3.66%
25,CC(=O)NC(SC(=S)N(C)C)C(Cl)(Cl)Cl (configuration not stated),inactive: 2.12%
26,O=[N+]([O-])c1ncn(CCn2cnc([N+](=O)[O-])n2)n1,inactive: -0.69%

row,Compound,inhibition (reported as % activation of signal)
1,O=[N+]([O-])c1ccc(O)c(/C=N/Nc2ccc([N+](=O)[O-])cc2[N+](=O)[O-])c1,inactive: -9.37%
2,O=[As](O)(c1ccccc1)c1ccc(O)cc1,inactive: 2.13%
3,O=P(Nc1nc2ccccc2s1)(c1ccccc1)c1ccccc1,inactive: 3.52%
4,C[C@H]1OP(=O)(Oc2ccccc2)[C@H](O)[C@H](O)[C@H]1N=[N+]=[N-] (some centres not stated),inactive: 5.89%
5,COc1ccc(N)c([N+](=O)[O-])c1[N+](=O)[O-],inactive: 40.4%
6,Nc1ccc(CCCCOc2ccccc2)cc1,inactive: -2.64%
7,CN(C)C1(CNC(=O)c2ccc(Cl)c(S(N)(=O)=O)c2)CCCCC1,inactive: 0.3%
8,O=P(Nc1ccccn1)(c1ccc(Br)cc1)c1ccc(Br)cc1,inactive: 1.17%
9,Cc1ccc(OCC(=O)OC2CN3CCC2CC3)cc1 (configuration not stated),inactive: -0.65%
10,O=[As](O)(c1cccs1)c1cccs1,inactive: 3.18%
11,NS(=O)(=O)c1cccc(NC(=O)COC(=O)C(O)(c2ccccc2)c2ccccc2)c1,inactive: 0.21%
12,O=P1(Nc2ccc(Br)cn2)COc2ccccc2OC1,inactive: -2.69%
13,Nc1cccc([As](=O)(O)c2ccccc2)c1,inactive: -2.04%
14,O=P1(Nc2ncccn2)COc2ccccc2OC1,inactive: 0.05%
15,Cc1ccc(S(=O)(=O)N(CCCN)CCCc2c(C)nc(N)[nH]c2=O)cc1,inactive: 4.18%
16,O=C(/C=C/c1ccccc1)OC1CN2CCC1CC2 (configuration not stated),inactive: 1.8%
17,CCCC1OP(=O)(Nc2ccccc2)OCC1CC (configuration not stated),inactive: 6.99%
18,CN(C)C1(CNC(=O)c2ccc(S(C)(=O)=O)cc2)CCCCC1,inactive: 1.43%
19,Cc1nn(-c2ccccc2)c2c1P(=O)(N1CCOCC1)N(C)C(c1ccccc1)=N2 (configuration not stated),inactive: 0.7%
20,Cc1ccc(C(=O)OC2CN3CCC2CC3)cc1 (configuration not stated),inactive: 0.32%
21,CC1CCC(C(C)C)C(OP(=O)(Nc2ccccn2)c2ccccc2)C1 (configuration not stated),inactive: 2.18%
22,CC1(CBr)Cn2c(nc3ccccc3c2=O)S1 (configuration not stated),inactive: -0.87%
23,CN(C(=O)Cc1ccc(Cl)c(Cl)c1)[C@@H]1CCCC[C@H]1N1CCCC1,inactive: -1.27%
24,CC(C)/C=N\N=C(\N)N[N+](=O)[O-],inactive: 0.41%
